Biological target: CNS nicotinic receptors (Rattus norvegicus, UniProt P09483+P12390)
Assay: Binding to relevant receptor sites
Conditions: inhibition constants calculated from IC50 values by the method of Cheng et al.
Description: Determination of Binding to Relevant Receptor Sites
Binding of the compounds to relevant receptor sites was determined in accordance with the techniques described in U.S. Pat. No. 5,597,919 to Dull et al. Inhibition constants (Ki values), reported in nM, were calculated from the IC50 values using the method of Cheng et al., Biochem, Pharmacol. 22:3099 (1973).

Amino acid sequences for entries named in this document (tags omitted). Residues count along the entry.
UniProt P09483, 31-630: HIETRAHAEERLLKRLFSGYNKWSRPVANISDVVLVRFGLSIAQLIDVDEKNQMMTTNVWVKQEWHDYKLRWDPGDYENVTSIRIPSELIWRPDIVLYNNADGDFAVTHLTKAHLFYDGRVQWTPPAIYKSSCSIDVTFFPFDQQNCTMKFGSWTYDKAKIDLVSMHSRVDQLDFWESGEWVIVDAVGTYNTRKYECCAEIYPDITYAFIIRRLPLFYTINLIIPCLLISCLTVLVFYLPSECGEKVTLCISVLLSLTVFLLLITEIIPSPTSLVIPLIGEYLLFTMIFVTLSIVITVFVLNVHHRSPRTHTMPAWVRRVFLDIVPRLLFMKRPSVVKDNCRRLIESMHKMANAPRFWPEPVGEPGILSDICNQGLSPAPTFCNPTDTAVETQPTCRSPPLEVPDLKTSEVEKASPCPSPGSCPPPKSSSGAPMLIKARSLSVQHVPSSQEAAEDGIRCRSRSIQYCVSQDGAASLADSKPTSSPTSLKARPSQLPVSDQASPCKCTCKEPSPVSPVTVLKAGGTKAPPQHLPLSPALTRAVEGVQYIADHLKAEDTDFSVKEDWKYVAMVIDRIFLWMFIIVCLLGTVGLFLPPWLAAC
UniProt P12390, 25-500: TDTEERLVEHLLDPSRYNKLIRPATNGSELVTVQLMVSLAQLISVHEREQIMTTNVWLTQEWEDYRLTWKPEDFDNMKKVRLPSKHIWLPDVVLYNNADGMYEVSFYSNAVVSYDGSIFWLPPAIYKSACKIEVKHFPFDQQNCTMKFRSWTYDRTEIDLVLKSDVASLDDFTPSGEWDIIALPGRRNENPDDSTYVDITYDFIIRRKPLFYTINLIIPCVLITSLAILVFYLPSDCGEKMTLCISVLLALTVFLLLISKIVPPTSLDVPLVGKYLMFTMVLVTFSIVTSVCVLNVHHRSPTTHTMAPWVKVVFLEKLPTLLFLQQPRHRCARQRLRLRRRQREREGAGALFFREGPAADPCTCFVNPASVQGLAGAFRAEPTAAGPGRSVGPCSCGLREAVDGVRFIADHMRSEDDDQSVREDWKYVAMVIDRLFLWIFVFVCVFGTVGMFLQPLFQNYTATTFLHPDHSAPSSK

(4E)-N-methyl-5-(3,4-dichlorophenyl)-4-penten-2-amine hemigalactarate [Sample No. 5]
Ki: 100 µM

(4E)-N-methyl-5-(3-(dimethylamino)phenyl)-4-penten-2-amine hemigalactarate [Sample No. 8]
Ki: 14.4 µM
